Results as given in PMC3210473 (Biotechnology and bioengineering, 2011).

Sequences of proteins named here, by UniProt entry; tags and fusion partners are left off. Residues count along the entry.
UniProt P03372, 312-595: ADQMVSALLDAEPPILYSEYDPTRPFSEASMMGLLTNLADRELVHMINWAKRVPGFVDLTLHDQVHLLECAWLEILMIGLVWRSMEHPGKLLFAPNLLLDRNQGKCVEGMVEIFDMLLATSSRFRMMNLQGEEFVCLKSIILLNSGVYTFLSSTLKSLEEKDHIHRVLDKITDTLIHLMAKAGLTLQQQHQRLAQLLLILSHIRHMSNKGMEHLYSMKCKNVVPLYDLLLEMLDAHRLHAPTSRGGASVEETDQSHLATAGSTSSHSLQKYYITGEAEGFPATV

Target: sensor 6 (ERα 312-595) (Homo sapiens, UniProt P03372)
Test: split mVenus complementation, flow cytometry
Type: cell-based
Conditions: transfected HeLa cells, up to […] ligand, […] h

CC(C)(c1ccc(O)cc1)c1ccc(O)cc1 [bisphenol A] was tested, and the “split mVenus complementation, flow cytometry” value was “showed strong induction at micromolar levels, along with bisphenol A”.
